Values quoted from earlier work, collected in publication PMC7830601.

Protein sequences, listed by entry. Tags and fused reporters are not part of them. Lines headed by an entry give the natural chain unless they say otherwise; changes in a name come on top.
UniProt Q8TDX7: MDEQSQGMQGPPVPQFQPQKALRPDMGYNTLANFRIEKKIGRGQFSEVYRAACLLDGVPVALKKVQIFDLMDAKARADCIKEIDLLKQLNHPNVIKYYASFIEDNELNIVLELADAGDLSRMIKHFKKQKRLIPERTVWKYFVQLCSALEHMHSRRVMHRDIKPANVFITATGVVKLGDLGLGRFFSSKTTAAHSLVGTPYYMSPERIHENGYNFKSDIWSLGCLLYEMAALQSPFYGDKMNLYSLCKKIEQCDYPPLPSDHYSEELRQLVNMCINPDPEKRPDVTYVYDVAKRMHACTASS
UniProt Q96P20, whole entry: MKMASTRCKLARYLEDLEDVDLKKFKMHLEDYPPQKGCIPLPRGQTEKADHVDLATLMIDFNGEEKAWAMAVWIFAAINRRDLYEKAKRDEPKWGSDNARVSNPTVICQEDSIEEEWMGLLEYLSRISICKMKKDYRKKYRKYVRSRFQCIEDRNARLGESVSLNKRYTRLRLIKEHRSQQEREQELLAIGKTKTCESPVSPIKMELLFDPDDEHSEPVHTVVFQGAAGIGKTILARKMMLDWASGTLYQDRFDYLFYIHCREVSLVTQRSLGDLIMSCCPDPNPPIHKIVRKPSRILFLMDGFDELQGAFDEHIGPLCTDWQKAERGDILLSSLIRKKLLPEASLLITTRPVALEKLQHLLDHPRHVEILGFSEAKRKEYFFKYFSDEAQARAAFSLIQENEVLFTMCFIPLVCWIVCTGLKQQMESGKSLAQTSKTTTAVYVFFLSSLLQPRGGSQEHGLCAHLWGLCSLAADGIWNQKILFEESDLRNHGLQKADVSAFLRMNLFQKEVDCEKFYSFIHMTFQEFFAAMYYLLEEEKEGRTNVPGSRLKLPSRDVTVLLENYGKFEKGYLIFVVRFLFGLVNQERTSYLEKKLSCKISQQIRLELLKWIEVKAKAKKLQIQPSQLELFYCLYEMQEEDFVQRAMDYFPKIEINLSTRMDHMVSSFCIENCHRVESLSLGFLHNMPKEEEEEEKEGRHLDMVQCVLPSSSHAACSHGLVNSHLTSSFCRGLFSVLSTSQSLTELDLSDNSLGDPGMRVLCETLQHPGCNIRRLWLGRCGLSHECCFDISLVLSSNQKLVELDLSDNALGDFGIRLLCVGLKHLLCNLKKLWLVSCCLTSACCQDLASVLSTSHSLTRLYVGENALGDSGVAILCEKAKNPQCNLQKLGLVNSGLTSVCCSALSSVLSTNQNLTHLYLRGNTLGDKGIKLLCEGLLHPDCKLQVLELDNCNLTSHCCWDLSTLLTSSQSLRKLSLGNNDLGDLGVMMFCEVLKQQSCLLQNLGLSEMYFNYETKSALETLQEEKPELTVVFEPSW

Target: NEK7 (Homo sapiens) (UniProt Q8TDX7)

Kd: 78.9 nM
Substance: NLRP3 (from UniProt Q96P20)
